Results taken from US20230405140A1, “ANTI-CD56 ANTIBODY-DRUG CONJUGATES AND THEIR USE IN THERAPY” (MCSAF INSIDE ONCOLOGY, priority 2020, published 2023).

What was measured:
[1] = tested on: H69 small cell lung carcinoma cell line; assay: XTT cytotoxicity test on H69 line; settings: at the lowest effective concentrations tested, in words
Description: (§1) In order to evaluate cell viability, a cytotoxicity test using XTT was carried out. The cells were deposited in a 96-well plate (50 000 cells/well) in 7 replicates. […] The culture medium acted as a negative control. After 4 days of exposure to the drug, 25 μL of reagent XTT was added per well and the absorption was measured at 450 nm after 4 hours of incubation at 37° C. The absorption at 620 nm was used as a reference.

WaGa MCC xenograft = assay: Xenograft model of MCC cell line on NOD/SCID mouse (Example 5); assay type: in vivo, NOD/SCID mice; settings: triple dose of 10 mg/kg, intravenous; sacrifice 30 days after inclusion
[2] = tested on: MCC lines (WaGa, PeTa, MS-1, MKL-2); assay: XTT cytotoxicity test on MCC cell lines; settings: at the lowest effective concentrations tested, in words
Description: as §1

WaGa = assay: Immunocytochemical fixation of antibody on tumor cells (peroxidase); assay type: binding; parameters: key: +: presence of a fixation of the antibody to the target cell revealed by peroxidase; −: absence of fixation; settings: m906 650 ng/mL, trastuzumab 40 ng/mL; peroxidase secondary antibody
SK-BR-3 = assay: as above; assay type: binding; parameters: key: +: presence of a fixation of the antibody to the target cell revealed by peroxidase; −: absence of fixation; settings: m906 650 ng/mL, trastuzumab 40 ng/mL; CD56-negative HER2-positive control line
MS-1 = assay: as above; assay type: binding; parameters: key: +: presence of a fixation of the antibody to the target cell revealed by peroxidase; −: absence of fixation; settings: m906 650 ng/mL, trastuzumab 40 ng/mL; peroxidase secondary antibody
PeTa = assay: as above; assay type: binding; parameters: key: +: presence of a fixation of the antibody to the target cell revealed by peroxidase; −: absence of fixation; settings: m906 650 ng/mL, trastuzumab 40 ng/mL; peroxidase secondary antibody
MKL-2 = assay: as above; assay type: binding; parameters: key: +: presence of a fixation of the antibody to the target cell revealed by peroxidase; −: absence of fixation; settings: m906 650 ng/mL, trastuzumab 40 ng/mL; peroxidase secondary antibody

Row | Substance | Cytotoxic effect [1] | mean weight of the tumors at end of study (WaGa MCC xenograft) | Cytotoxic effect [2] | Binding (fixation) to cell line WaGa (WaGa) | Binding (fixation) to cell line SKBR3 (SK-BR-3) | Binding (fixation) to cell line MS-1 (MS-1) | Binding (fixation) to cell line PeTa (PeTa) | Binding (fixation) to cell line MKL-2 (MKL-2)
1 | MF-TTZ-MMAE: ADC Trastuzumab coupled to MMAE (ADC control) [reference compound] | neither the antibody m906 (i.e. non coupled to MMAE), nor the ADC MF-TTZ-MMAE (ADC control) has a cytotoxic effect | 1.78 g | neither the antibody m906 (i.e. non coupled to MMAE), nor the ADC MF-TTZ-MMAE (ADC control) has a cytotoxic effect |  |  |  |  | 
2 | Trastuzumab: anti-HER2 antibody control (Herceptin 150 mg Roche) [reference compound] |  |  |  | − | + | − | − | −
